Test results reported in paper PMC6982609 (Nature chemical biology, 2019).

System: TNBC cells
Assay: Growth inhibition of TNBC cells by EZH2 inhibitors
Assay type: cell-based

## CCN(c1cc(-c2ccc(CN3CCOCC3)cc2)cc(C(=O)NCc2c(C)cc(C)[nH]c2=O)c1C)C1CCOCC1 [EPZ6438]
  growth inhibition and apoptosis induction in TNBC cells: failed to inhibit growth
